The values below come from patent US20110318808.

The data set concerns the target T1, fluorophore/quencher substrate peptide DABCYL-YGENVTFQGSK-EDANS.
T1 chain: YGENVTFQGSK

B1: NIa protease variant C151S (protein)
chain: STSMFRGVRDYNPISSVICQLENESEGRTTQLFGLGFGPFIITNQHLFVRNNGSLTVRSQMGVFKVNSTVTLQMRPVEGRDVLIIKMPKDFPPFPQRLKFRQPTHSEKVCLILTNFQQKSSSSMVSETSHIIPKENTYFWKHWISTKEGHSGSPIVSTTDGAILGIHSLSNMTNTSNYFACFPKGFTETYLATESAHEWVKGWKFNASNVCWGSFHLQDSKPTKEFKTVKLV
As for B1, the Km (uM), DTT + turned out to be 165 µM; the Relative Kcat/Km, DTT + worked out at 4.3; the Vmax (RFU/min), DTT + is 3240 RFU/min.

B2: NIa protease variant C110S/C181S/C211S (protein)
chain: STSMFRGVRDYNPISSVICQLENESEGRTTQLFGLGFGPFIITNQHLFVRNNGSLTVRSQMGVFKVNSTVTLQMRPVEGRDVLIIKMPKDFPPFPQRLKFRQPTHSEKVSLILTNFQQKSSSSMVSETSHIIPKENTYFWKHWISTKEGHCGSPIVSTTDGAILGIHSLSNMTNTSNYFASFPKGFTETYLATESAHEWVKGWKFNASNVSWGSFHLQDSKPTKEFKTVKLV
For B2, the Km (uM), DTT + came to 252 µM; the Relative Kcat/Km, DTT + was found to be 45.9; the Vmax (RFU/min), DTT + was found to be 51100 RFU/min.

B3: NIa protease variant C110S/C151S/C181S/C211S (protein)
chain: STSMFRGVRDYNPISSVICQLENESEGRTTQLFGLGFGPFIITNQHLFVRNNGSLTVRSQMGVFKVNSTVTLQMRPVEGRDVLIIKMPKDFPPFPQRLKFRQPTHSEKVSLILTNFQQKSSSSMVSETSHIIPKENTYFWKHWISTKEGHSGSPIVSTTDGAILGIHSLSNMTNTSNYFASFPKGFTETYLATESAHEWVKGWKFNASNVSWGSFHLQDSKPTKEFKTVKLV
B3: the Km (uM), DTT + turned out to be 71.8 µM; the Relative Kcat/Km, DTT + was 7.6; the Vmax (RFU/min), DTT + is 2350 RFU/min.

B4: NIa protease variant C19V/C110S/C181S/C211S (protein)
chain: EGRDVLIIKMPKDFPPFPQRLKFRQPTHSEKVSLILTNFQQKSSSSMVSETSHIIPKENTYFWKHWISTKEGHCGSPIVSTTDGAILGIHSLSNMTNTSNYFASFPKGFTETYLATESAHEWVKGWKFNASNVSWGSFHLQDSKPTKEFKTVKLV
As to B4, the Km (uM), DTT + came out at 275 µM; the Km (uM), DTT - (purified and assayed in the absence of reductant) came to 175 µM; the Relative Kcat/Km, DTT + was 59.5; the Relative Kcat/Km, DTT - (purified and assayed in the absence of reductant) stood at 69.1. Further, the Vmax (RFU/min), DTT + came out at 75200 RFU/min; the Vmax (RFU/min), DTT - (purified and assayed in the absence of reductant) is 53800 RFU/min.

B5: NIa protease variant C19V/C110S/C151S/C181S/C211S (protein)
chain: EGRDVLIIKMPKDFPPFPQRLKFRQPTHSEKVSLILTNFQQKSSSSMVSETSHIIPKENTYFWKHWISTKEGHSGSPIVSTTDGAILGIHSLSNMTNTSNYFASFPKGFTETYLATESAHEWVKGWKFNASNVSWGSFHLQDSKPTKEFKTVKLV
For B5, the Km (uM), DTT + worked out at 39.6 µM; the Km (uM), DTT - (purified and assayed in the absence of reductant) was 43.1 µM; the Relative Kcat/Km, DTT + was found to be 10.8; the Relative Kcat/Km, DTT - (purified and assayed in the absence of reductant) was 7.1. For the same protein, the Vmax (RFU/min), DTT + came out at 1890 RFU/min; the Vmax (RFU/min), DTT - (purified and assayed in the absence of reductant) was 1360 RFU/min.
